pIC50: −log10 of the molar value.
Molecular target: T1, urokinase enzyme Abbokinase (Homo sapiens, UniProt P00749)
T1 construct: purchased Abbott Laboratories, Abbott Park, Ill
Assay: Determination of urokinase inhibition (Abbokinase, chromogenic substrate S-2444)
Assay type: biochemical

COc1ccc2ccc(C(=N)N)cc2c1-c1ccco1 [Example 25, 7-Methoxy-8-(2-furanyl)-2-naphthalenecarboximidamide]
pIC50: 5.68

N=C(N)c1ccc2cc(C#Cc3ccc(CCN)cc3)ccc2c1 [Example 63, 6-[[4-(2-Aminoethyl)phenyl]ethynyl]-2-naphthalenecarboximidamide]
pIC50: 6.43

N=C(N)c1ccc2cc(-c3ccc(N)cc3)ccc2c1 [Example 93, 6-(4-aminophenyl)-2-naphthalenecarboximidamide]
pIC50: 5.63

COc1ccc2ccc(C(=N)N)cc2c1Nc1ccccc1 [Example 102, 7-methoxy-8-(phenylamino)-2-naphthalenecarboximidamide]
pIC50: 6.47

[H]/N=C(/N)c1ccc2cc(C=Cc3ccc(C(O)CO)cc3)ccc2c1 (centres unmarked) [Example 104, (E)-6-[2-[4-(1,2-dihydroxyethyl)phenyl]ethenyl]-2-naphthalenecarboximidamide]
pIC50: 5.92

From patent US20010049374A1 (priority 1997, published 2001)
